Apparent affinities of Ab-14 variants for a coronavirus HR2 peptide

Data: MIT Lincoln Laboratory AlphaSeq set, Li et al. 2023, doi:10.1038/s41467-023-39022-2, as distributed in FLAb.

Target peptide (SARS-CoV-2 spike, HR2 region): PDVDLGDISGINAS

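The parent was found by panning a naive human phage display library on the peptide. These sequences belong to a second round, designed from the earlier measurements on random variants of the parent. Group labels follow the data file (Ctrl: baseline library sampled from a position-specific scoring matrix, with some repeated check sequences; Rand: our label for a block that the file lists under HC and that is probably the random mutants of the ten best first-round binders; En: ensemble of fine-tuned language models; GP: Gaussian process model; HC: hill climbing; Gen: genetic algorithm; Gibbs: Gibbs sampling; a sequence that several methods proposed may carry one label only). AlphaSeq pools MATa yeast showing the antibodies with MATalpha yeast showing the peptide. Mating (16 h, 30 °C) was followed by selection of diploids and sequencing of their barcodes. A regression on co-assayed BCL2-family reference pairs converts the normalised counts of each replicate to an apparent Kd. The assay was run in six technical replicates.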

Parent scFv Ab-14: VH joined to VL by the linker GGGGSGGGGSGGGGS. Changes lie in the light chain CDRs alone.
VH: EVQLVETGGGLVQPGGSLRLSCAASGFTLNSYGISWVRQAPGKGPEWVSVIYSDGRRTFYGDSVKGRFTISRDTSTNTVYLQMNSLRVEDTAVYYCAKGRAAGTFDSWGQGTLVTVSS
VL: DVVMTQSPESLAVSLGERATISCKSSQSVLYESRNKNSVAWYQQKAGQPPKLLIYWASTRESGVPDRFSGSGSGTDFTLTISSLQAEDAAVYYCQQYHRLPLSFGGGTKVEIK

Variants are written as CDR1, CDR2 and CDR3 of the light chain (limits as in the source). Parent: KSSQSVLYESRNKNSVA, WASTRES, QQYHRLPLS.
Scale: log10 of Kd in nM, estimated from mating counts; low values are strong binders.
The mean shown is taken over the replicates in which the pair was detected.
A pair that was not seen in any replicate is written "nd"; this usually means weak binding, but a binder can also be missed.

Read-out -0.04 (6 of 6 replicates), from TITQLTSSFSQNINNVA | EVSTRLN | QQYDRLPLA [En_Gen].
Read-out 1.08 (6 of 6 replicates), from KVSQSVDYESRNKNSVA | WASHRES | QQYHRLPLS [Ctrl].
Read-out 0.15 (6 of 6 replicates), from KVSQSELYESRNKNSVA | NASQRES | QDYHRLPLS [GP_Gen].
Read-out 2.22 (5 of 6 replicates), from MLSQMWAIGMKVSNSVA | QASMRFN | QQYDRLPLI [En_Gen].
Read-out -0.29 (6 of 6 replicates), from KLSQSVLYESRMKNSVA | NASTREK | QQYHRLPLS [GP_Gen].
Read-out 1.16 (2 of 6 replicates), from KSSQSNLYESRNKPSVA | WASVRES | QQYHREPLS [Ctrl].
Read-out 2.06 (5 of 6 replicates), from HISMSVGLTSFQKNSVA | ENSTREN | QQYDRLPLS [En_HC].
Read-out -0.45 (6 of 6 replicates), from KQSWSEDYGSRNKNSVA | DASQRES | QQYHRLPLS [GP_Gibbs].
Read-out 1.58 (1 of 6 replicates), from KSSQSPDNEERNKNSVA | WASTRES | QQYHRLPLS [Ctrl].
Read-out -0.25 (6 of 6 replicates), from KSSWSYLYESRNKNSVA | EASTRES | QQYHRLPLS [GP_HC].
Read-out nd (0 of 6 replicates), from KSSQSVLYESCNKNSVA | WASTRES | QQYHRLPLS [Ctrl].
Read-out 0.21 (6 of 6 replicates), from KSQQSQDYESRNKNSVA | HASTRED | QQYHRLPLS [GP_HC].
Read-out -0.09 (6 of 6 replicates), from KFSQSVLYESGTKNSVA | NAVTRET | QQYHRLPLS [GP_HC].
Read-out 1.54 (4 of 6 replicates), from MISGSVMSESRLKNSVA | QTTTRES | QQYDRLPLS [En_HC].
Read-out 0.21 (6 of 6 replicates), from KLSQSWLYESRMKNSVA | GASTRES | QQYHRLPLS [GP_HC].
Read-out 0.63 (6 of 6 replicates), from TLGQVTMQLQRNKNSVA | DASTSED | QQYDRLPLS [En_HC].
Read-out 0.08 (6 of 6 replicates), from ALSQSVLYESRNKNSVA | NASTREQ | QQYHRLPLS [GP_Gen].
Read-out 1.32 (6 of 6 replicates), from KLSEYVGGESRNKSSLA | DNSTRES | QQYHRLPLS [En_HC].
Read-out -0.19 (6 of 6 replicates), from KLSGSYLYESRNKNSVA | NASTRES | QQYHRLPLS [GP_Gen].
Read-out -0.04 (6 of 6 replicates), from KLQQSFLYESRNKNSVA | NASTRCS | QQYHRLPLS [GP_Gen].
Read-out 0.19 (6 of 6 replicates), from SFSQSVLYESVMKNNVA | QTSTREE | QQYDHLPLS [En_HC].
Read-out 0.37 (6 of 6 replicates), from KVSQLGLYGSRNKNSVA | EASTRES | QQYHRLPLS [GP_Gibbs].
Read-out 0.57 (6 of 6 replicates), from KLEQSDLYESRNKNSVA | NASQRES | QQYHRLPLS [GP_Gen].
Read-out 2.43 (1 of 6 replicates), from HFAQTRQEDIQDKNSVA | EGSVVIS | QQYSKLPLS [En_Gibbs].
Read-out -0.14 (6 of 6 replicates), from HSSPSVPYESRNKNSVA | NASTREQ | QDYHRLPLS [GP_HC].
Read-out 0.24 (6 of 6 replicates), from KMSQSAPMESRNANSVA | NASTREE | QQYHRLPLS [GP_Gibbs].
Read-out 0.21 (6 of 6 replicates), from KSSQSVLYESLNKNSVA | GASTRES | QQYHRLPLS [Ctrl].
Read-out 0.45 (6 of 6 replicates), from KVSFSVMLESRNKNAVA | EASQRES | QQYHRLPLS [GP_Gibbs].
Read-out 0.22 (6 of 6 replicates), from KLSFSWLYESRNKNSVA | EASTRES | QQYHRLPLS [GP_Gen].
Read-out -0.36 (6 of 6 replicates), from KSEQSQLYESRNKNSVA | NASTRED | QQYHRLPLS [GP_HC].
Read-out 1.25 (6 of 6 replicates), from SLELFSLEGDKPVNNVA | DEVVKTS | QQYFRLPLH [En_Gibbs].
Read-out 0.09 (6 of 6 replicates), from KLSMSVLMEQRNKNSVA | SANQREE | QQYHRLPLS [GP_Gibbs].
Read-out 2.59 (4 of 6 replicates), from KSSQSVLYDCRNKNSVA | WASTRDS | QQYHRIPLS [Ctrl].
Read-out -0.09 (6 of 6 replicates), from KLSGSMLYEQRMLNSVA | QASQRMS | QQYHRLPLS [GP_Gibbs].
Read-out 0.23 (6 of 6 replicates), from KSSQSVSYESSNKNSVA | NASTRPS | QQYHRLPLS [Ctrl].
Read-out 1.00 (6 of 6 replicates), from MMSQVTGQGQKHRNNVA | QTSTREP | QQYDRLPLI [En_Gen].
Read-out 1.90 (4 of 6 replicates), from NLSIQCQHQNMSANAVA | QTEIREV | QQYAQLPLA [En_Gibbs].
Read-out 1.61 (5 of 6 replicates), from SISMSMAFLSRNKNSVA | ENSTRES | QQYHRLPLV [En_HC].
Read-out -0.36 (6 of 6 replicates), from HLSQSVLYESRNKNSVA | DASTRCS | QQYHRLPLS [GP_Gen].
Read-out 0.98 (6 of 6 replicates), from IFSQSVLMGMHTKNSVA | QATMRFN | QQYERLPFM [En_HC].
Read-out nd (0 of 6 replicates), from KSSQSVLYESQNKNSVW | FASTRES | QQYHRLPLS [Ctrl].
Read-out -0.48 (6 of 6 replicates), from KLSQSVGYESRNKNNVA | AASTRES | QQYHRLPLS [GP_Gen].
Read-out -0.12 (6 of 6 replicates), from KLSQGDWYQSRMDNSVA | DASTRES | QQYHRLPLS [GP_Gibbs].
Read-out nd (0 of 6 replicates), from KVSQSVEYEDRNKNSVA | MASQRNS | QQYHRLPLS [GP_Gibbs].
Read-out 3.41 (2 of 6 replicates), from KYSQSVLYPSRNKNSVA | WASTRES | QQYHRDPES [Ctrl].
Read-out -1.49 (2 of 6 replicates), from KIGMTLNLLYEKQNNVA | DLVMREN | QQYHRLPLS [En_Gen].
Read-out 1.24 (6 of 6 replicates), from KLSSFHGVESINKSNVA | EMVTRES | QQYDRLPLS [En_HC].
Read-out 0.93 (6 of 6 replicates), from SLTIYTDENGLKHQSIA | GAGLRML | QQYHRLPLT [En_Gibbs].
Read-out nd (0 of 6 replicates), from KSCQSVLYESRNKNSVA | HASTRED | KQYHRLPLS [Rand].

Excerpt, the final 8 entries:

| CDR-L1 | CDR-L2 | CDR-L3 | group | mean log10 Kd (nM) | detected |
|---|---|---|---|---|---|
| KLSQSVGYESRNKNNVA | AASTRES | QQYHRLPLS | GP_Gen | -0.48 | 6 of 6 |
| KLSQGDWYQSRMDNSVA | DASTRES | QQYHRLPLS | GP_Gibbs | -0.12 | 6 of 6 |
| KVSQSVEYEDRNKNSVA | MASQRNS | QQYHRLPLS | GP_Gibbs | nd | 0 of 6 |
| KYSQSVLYPSRNKNSVA | WASTRES | QQYHRDPES | Ctrl | 3.41 | 2 of 6 |
| KIGMTLNLLYEKQNNVA | DLVMREN | QQYHRLPLS | En_Gen | -1.49 | 2 of 6 |
| KLSSFHGVESINKSNVA | EMVTRES | QQYDRLPLS | En_HC | 1.24 | 6 of 6 |
| SLTIYTDENGLKHQSIA | GAGLRML | QQYHRLPLT | En_Gibbs | 0.93 | 6 of 6 |
| KSCQSVLYESRNKNSVA | HASTRED | KQYHRLPLS | Rand | nd | 0 of 6 |

Of ten entries with the parent sequence, four were seen in most replicates (averages 0.34 to 2.37), three in one and three in none, so single entries are noisy.
The authors averaged sequences with at least three values out of six and counted those with two or fewer as poor binders.
A sequence measured in both rounds can read differently, since the two assays cover different ranges.
Nonspecific signal, from three strains lacking the peptide, appeared in 4% of pairings of all light chain designs, centred on 2.64 (5% of these signals below 1.59); values are not corrected for it.